# scFv variants of Ab-14 (light chain) against a SARS-CoV-2 spike peptide

Target peptide (SARS-CoV-2 spike, HR2 region): PDVDLGDISGINAS

Each scFv is VH, a 15-residue (Gly4Ser)3 linker, VL, as in the parent Ab-14, and differs from it in the CDRs of the light chain only.
VH: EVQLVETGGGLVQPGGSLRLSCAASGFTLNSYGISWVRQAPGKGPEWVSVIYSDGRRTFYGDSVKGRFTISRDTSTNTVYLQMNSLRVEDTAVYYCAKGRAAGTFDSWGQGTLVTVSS
VL: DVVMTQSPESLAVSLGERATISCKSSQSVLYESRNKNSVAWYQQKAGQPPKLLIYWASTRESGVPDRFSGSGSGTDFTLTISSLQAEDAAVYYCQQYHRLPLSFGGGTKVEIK

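AAYL50 was designed without a model: most single CDR substitutions and a random sample of double and triple ones. Affinity was read by AlphaSeq, a pooled yeast mating assay with surface-displayed partners. The frequency of each diploid, read from paired DNA barcodes, reflects how well the two displayed proteins bind. Read counts were normalised to the haploid input and turned into Kd by a linear fit to BCL2-family pairs of known affinity, for each replicate. The assay was run in three technical replicates.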

Substitutions are numbered in sequence along the VL above, starting at 1 (not Kabat). Values are log10 of the apparent Kd in nM; lower means stronger binding. "nd" marks a missing value. The strain was present, yet no cells mated with the target were sequenced in that replicate, which points to weak or no binding. Nonspecific signal, from three strains lacking the peptide, appeared in 18% of pairings of library AAYL50, centred on 4.19 (5% of these signals below 2.99); values are not corrected for it. For each scFv, signals with the empty controls are counted beside the result, with their mean in brackets. In this assay the parent's reference entry averaged 0.65; its copy inside this library read 1.68.

{"changes": "V29W T59Q H98K", "log10 Kd, replicates": "0.65 0.87 0.78", "empty controls": "2/9 (4.16)"}
{"changes": "K24H L100M S103D", "log10 Kd, replicates": "3.43 nd 3.49", "empty controls": "4/9 (3.69)"}
{"changes": "V39Y Q96S", "log10 Kd, replicates": "nd nd nd", "empty controls": "0/9"}
{"changes": "A57T P101R S103C", "log10 Kd, replicates": "nd 2.78 nd", "empty controls": "2/9 (3.33)"}
{"changes": "S26C H98K P101T", "log10 Kd, replicates": "nd nd 2.26", "empty controls": "1/9 (3.94)"}
{"changes": "N35V S62M S103L", "log10 Kd, replicates": "6.27 nd 4.08", "empty controls": "4/9 (4.98)"}
{"changes": "Y31I E32N L102Q", "log10 Kd, replicates": "nd 3.13 2.84", "empty controls": "0/9"}
{"changes": "R34L A40M", "log10 Kd, replicates": "4.72 4.01 4.90", "empty controls": "1/9 (4.84)"}
{"changes": "L30N R34K V39M", "log10 Kd, replicates": "3.15 2.65 3.12", "empty controls": "9/9 (4.93)"}
{"changes": "S62V P101S L102G", "log10 Kd, replicates": "1.04 1.16 1.14", "empty controls": "8/9 (4.65)"}
{"changes": "Y31Q K36A V39Y", "log10 Kd, replicates": "3.59 3.63 4.13", "empty controls": "4/9 (4.55)"}
{"changes": "Q27T R99M L100R", "log10 Kd, replicates": "0.62 0.87 0.83", "empty controls": "0/9"}
{"changes": "S38N E61V", "log10 Kd, replicates": "0.19 0.52 0.40", "empty controls": "7/9 (5.15)"}
{"changes": "L30M A57H R60Y", "log10 Kd, replicates": "3.82 nd nd", "empty controls": "1/9 (2.72)"}
{"changes": "S25Q S28H K36Y", "log10 Kd, replicates": "nd nd nd", "empty controls": "0/9"}
{"changes": "E32L", "log10 Kd, replicates": "1.92 1.60 1.86", "empty controls": "0/9"}
{"changes": "Y31E W56F S103Y", "log10 Kd, replicates": "1.22 1.39 1.58", "empty controls": "0/9"}
{"changes": "R34G V39A P101N", "log10 Kd, replicates": "nd 4.57 nd", "empty controls": "3/9 (4.06)"}
{"changes": "A57T T59R E61S", "log10 Kd, replicates": "1.79 2.47 2.28", "empty controls": "0/9"}
{"changes": "Q27D E32A R99Y", "log10 Kd, replicates": "nd 4.21 4.71", "empty controls": "0/9"}
{"changes": "E32I K36L Q95C", "log10 Kd, replicates": "nd nd nd", "empty controls": "0/9"}
{"changes": "Q27D N37A S58C", "log10 Kd, replicates": "2.87 2.99 3.66", "empty controls": "2/9 (4.04)"}
{"changes": "S26T Y31G Y97S", "log10 Kd, replicates": "2.78 2.22 2.49", "empty controls": "3/9 (4.51)"}
{"changes": "S28Y W56P", "log10 Kd, replicates": "nd nd nd", "empty controls": "1/9 (5.17)"}
{"changes": "L30M Y97K", "log10 Kd, replicates": "nd nd nd", "empty controls": "1/9 (5.02)"}
{"changes": "S28H Y31H V39T", "log10 Kd, replicates": "nd nd nd", "empty controls": "0/9"}

The first 2 variants above that were never detected:

{"changes": "V39Y Q96S", "log10 Kd, replicates": "nd nd nd", "empty controls": "0/9"}
{"changes": "S25Q S28H K36Y", "log10 Kd, replicates": "nd nd nd", "empty controls": "0/9"}

Data: MIT Lincoln Laboratory AlphaSeq set, Engelhart et al. 2022, doi:10.1038/s41597-022-01779-4, as distributed in FLAb.